Assay results as given in patent US20150273086A1, “HYPERPOLARIZED 2-OXOGLUTARATE AS METABOLIC AGENT IN MR” (BRACCO IMAGING S.P.A., priority 2012, published 2015).

Conditions: 30 s after dissolution; phosphate buffer, pH 7.2

With “1-^13C-2-oxoglutaric acid [hyperpolarized 1-^13C-2-oxoglutarate]” the polarization was 14%.
